AlphaSeq binding of Ab-14 light chain variants to a spike HR2 peptide

Reference: Li et al. 2023, doi:10.1038/s41467-023-39022-2. File: FLAb, binding data.

Target peptide (SARS-CoV-2 spike, HR2 region): PDVDLGDISGINAS

The variants keep the heavy chain, the linker and the frameworks of Ab-14 (scFv order VH, a (GGGGS)3 linker, VL).
VH: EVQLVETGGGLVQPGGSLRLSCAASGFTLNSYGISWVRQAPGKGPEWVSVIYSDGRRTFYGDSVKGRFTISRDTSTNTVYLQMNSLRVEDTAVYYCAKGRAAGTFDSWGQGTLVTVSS
VL: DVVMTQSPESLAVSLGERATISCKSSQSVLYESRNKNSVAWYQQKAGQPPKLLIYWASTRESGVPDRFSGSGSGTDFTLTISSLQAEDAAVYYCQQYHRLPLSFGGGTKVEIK

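The starting antibody came from a phage panning campaign against this peptide. The variants were designed computationally from a first round of random CDR variants and then made and measured. Several design methods are mixed in this list. The scFvs were displayed on barcoded MATa yeast, the peptide on MATalpha yeast. Pairs that bind mate more often; barcode pairs of the diploids are counted by sequencing. A regression on co-assayed BCL2-family reference pairs converts the normalised counts of each replicate to an apparent Kd. The assay was run in six technical replicates.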

Each variant is given by its three light chain CDRs, as the data file delimits them; those of the parent are KSSQSVLYESRNKNSVA, WASTRES, QQYHRLPLS. Each Kd is an estimate from the mating assay, the geometric mean of the replicates in which the pair was seen; lower is stronger. Where no diploid with the target was found in any replicate, the entry reads "no signal": below detection, most likely a poor binder, though not proof of it. The authors averaged sequences with at least three values out of six and counted those with two or fewer as poor binders. The range of this assay differs from that of the first round, and the authors advise against merging the two. Of ten entries with the parent sequence, four were seen in most replicates (averages 2.2 nM to 240 nM), three in one and three in none, so single entries are noisy. Where one sequence has several entries in the source, the replicates are pooled. Nonspecific signal, from three strains lacking the peptide, appeared in 4% of pairings of all light chain designs, centred on 430 nM (5% of these signals below 38 nM); values are not corrected for it. Also given: how often the same scFv was detected with the empty control strains.

CDR-L1,CDR-L2,CDR-L3,Kd,detected,control signals
KSSQSVLYERRNKNSVA,NASERAS,QQKHRLPLS,no signal,0 of 6,0 of 18
KSSQSVEMESRNKNNVA,DASQRES,QQYHRLPLS,1.2 nM,6 of 6,0 of 18
KVRQSTLYESRNKNSVA,RASTRES,QQYHRLPLS,9.4 nM,6 of 6,0 of 18
KITATMRFEQKESNNIA,EVTTRSK,QQYYRLPLA,14 nM,5 of 6,0 of 18
KSSQSVAYEGRNKNSVA,WASTRES,QQYHHLPLS,8.4 nM,6 of 6,0 of 18
KISQMVRVGSTHSNSIA,EEATRAK,QQYHRLPLS,3.6 nM,6 of 6,0 of 18
KLQNFSQEDDKMWNNIA,ETTMVHT,QQYMTLPLM,27 nM,6 of 6,0 of 18
VMSQSVLYEERNKESVA,WASTREG,QQYHRLPLS,250 nM,1 of 6,0 of 18
TISQMSFIESKNRNNVA,EMTTREN,QDYDRLPLS,1.8 nM,6 of 6,0 of 18
SLGLVTMLEYAGRNSVA,NNSTREE,QQYDRLPLS,610 nM,4 of 6,1 of 18
KLSQSDLYESRMKNSVA,EASTRES,QQYHRLPLS,730 pM,6 of 6,2 of 18
KLRLSKEYESRQKNSVA,NASTREV,QQYHRLPLS,500 pM,6 of 6,0 of 18
KLEMSVQLESRNKNSVA,SASTRER,QQYHRLPLS,1.9 nM,6 of 6,0 of 18
KLMQSHLYESRNKNSVA,NASTRLS,QQYHRLPLS,950 pM,6 of 6,0 of 18
KLSQSMLYESRNKNNVA,EASQRES,QSYHRLPLS,550 pM,6 of 6,1 of 18
KLSMITGHMSMSKNNVA,EMETREK,QQYNRLPLA,590 pM,6 of 6,0 of 18
MIKEENIEVGNYQNSIA,DGASTMA,QQYYRLPLA,9.3 nM,6 of 6,1 of 18
NLSDGEMYENATRSAVA,NTSMRDF,QQYNRLPLD,730 nM,4 of 6,2 of 18
KLVGVDDNDPNPSHNIA,DVSMLDN,QQYHRLPLD,250 nM,6 of 6,1 of 18
KNSQSVLFQSRNKNSVA,DASTRES,QQYHRLPLS,420 pM,6 of 6,1 of 18
HITYGMQVMGRHSKSIA,QAEERAK,QQYDRLPLT,16 nM,6 of 6,1 of 18
HMSALTLMGTRNRNSVA,QMTTREN,QQYDRLPLT,4.2 nM,6 of 6,2 of 18
KMSQSVLMEHMNKNSVA,DASLRES,QQYHRLPLS,1.5 nM,6 of 6,2 of 18
AISQGWLYESRNKNSVA,GASTRED,QQYHRLPLS,540 pM,6 of 6,2 of 18
KSSQSDQYESRNKNSVA,RASYRES,QQYHRLPLS,no signal,0 of 6,0 of 18
KSSQSVYYESRNTNSVA,WASTRES,QQYHRLPLS,31 nM,5 of 6,1 of 18
KLSQSDLYESRNKNSVA,EASTREM,QQYHRLPLS,1.6 nM,6 of 6,1 of 18
TLSHSTDLESVHKNSIA,DLMTRES,QQYERLPLS,5.1 nM,6 of 6,0 of 18
QLLMATMQGQHNRNSVA,HAVTRND,QSYHRLPLS,16 nM,6 of 6,0 of 18
KIGQSMAMTSHHINSVA,QSTTREE,QQYNRLPLS,980 pM,6 of 6,1 of 18
KLSQSVEYESRNKNSVA,NASQRES,QQYHRLPLS,770 pM,6 of 6,2 of 18
KSSPSQLYEDREFNSVA,NASYRES,QQYHRLPLS,3.0 nM,6 of 6,2 of 18
KYYPSYLYESRNKNSVA,QASTRES,QQYQLLPLS,990 pM,6 of 6,1 of 18
KSSQSVLYESRNVNSVA,WASTRES,QQYHRLPLS,83 nM,6 of 6,0 of 18
KSSGSILYESVNKNSVA,HASTRES,QQYHRLPLS,2.8 nM,6 of 6,0 of 18
HSSPSVLYESRNKNNVA,GASTRES,QQYHRLPLS,560 pM,6 of 6,0 of 18
KFSQSVMFMSGVYNSVA,QMSTRAE,QQYNRLPLS,600 pM,6 of 6,0 of 18
HVSQSVLQEQRNKNSVA,EASQRER,QQYHRLPLS,3.6 nM,6 of 6,3 of 18
KLQQSMLYESRNKNSVA,DASTRLS,QQYHRLPLS,490 pM,6 of 6,0 of 18
MLNGPVEIEQHKWNSVA,SAEITAM,QQYGRLPFS,16 nM,3 of 6,0 of 18
TIGQTLMYGMRNRSNVA,EVSQRLN,QQYDRLPLI,50 nM,6 of 6,1 of 18
KSKQGWLYESRNKNSVA,GASTRED,QQYHRLPLS,490 pM,6 of 6,1 of 18
KSSQSMTYESRAKNSVA,WASTRES,QQYHRLPLS,110 nM,4 of 6,0 of 18
KSQQSVLNESFNKNSVA,RASTRES,QQYHRLPLE,2.8 nM,6 of 6,0 of 18
KVSQSVLMESCNVNNVA,YASTRED,QQYHRLPLS,7.0 nM,6 of 6,1 of 18
KIGQTLNQLMHQKNNVA,DLVMREK,QQYHRLPLS,4.8 nM,6 of 6,1 of 18
KLRQLTHIESFNKNNVA,EMTTREV,QSYDRLPLS,64 nM,6 of 6,1 of 18
KLSQSELYESRNKNSVA,GASTRES,QAYHRLPLS,2.2 nM,6 of 6,0 of 18
HMTEQVFQGSRNKYNIA,AEVKRVY,QQYQRLPLM,770 nM,3 of 6,1 of 18
MIHESMGLMSHKHSSIA,DNSTREE,QQYDRLPLS,no signal,0 of 6,0 of 18
TLTQVQGMLSHNKNSVA,DLSTRGS,QQYHRLPLS,1.7 nM,6 of 6,3 of 18
KLEQSDLYESRNKQSVA,NASQRER,QQYHRLPLS,no signal,0 of 6,0 of 18
DVHALMNHSEDLMQNIA,DESCRDA,QQYERLPLS,50 nM,6 of 6,1 of 18
KSSISYLYWSRNKNSVA,EAPTRES,QQYHRLPLS,no signal,0 of 6,0 of 18
MIYGADRELGRATNSIA,DNVTRYN,QQYERLPLS,6.0 µM,2 of 6,0 of 18
KFSQSVLYESRDKNSVA,WASTRES,DQYHRLPLS,190 nM,8 of 30,1 of 90
KLYQLTAMTSRMKNNVA,DLNERER,QQYFRLPLS,3.1 nM,6 of 6,0 of 18
KIGDTLNQLMHKKNNVA,DLVTREN,QQYYRLPLS,2.3 nM,6 of 6,1 of 18
HMSMLTLQGMRQRNSVA,QMTTREN,QQYDRLPLA,440 nM,6 of 6,0 of 18
KSSQSVLPESRNKNSVA,WASWRES,QQYQRLPLS,13 nM,1 of 6,0 of 18
KSSQSVLYESRNLNSVA,WASTREK,QQYHRLPLS,80 nM,3 of 6,0 of 18
MSSQSVLYESRNKNSVA,WASTRTS,QQYHRLPLS,120 nM,6 of 6,0 of 18
KMSQQVLYESRPKNSVA,WASTRES,QQYHRLPLS,no signal,0 of 6,0 of 18
KSSQSVLYESCNCNSVA,AASTRES,QQVHRLPLS,no signal,0 of 6,0 of 18
KQSQSVLYESRNKNAVA,DASTRES,QTYHWLPLS,7.7 nM,6 of 6,1 of 18
KSSMSVLYESRNENSGA,AASTRES,QQYHRLPLS,5.9 nM,6 of 6,0 of 18
KMSQSWLYESRNKNSVA,NGSQRES,QQYHRLPLS,510 pM,6 of 6,0 of 18
KWMQSVDYESRNKNSVA,NGQTREA,QQYHRLPLS,330 pM,6 of 6,0 of 18
KLSIFHNVESINKSNVA,EMVTRES,QQYDRLPLS,76 nM,4 of 6,1 of 18
KFSQSVLMESRNKNSVA,WASIRES,QQYHRLPLS,5.0 nM,6 of 6,1 of 18
KLSESAHFESRKKNSVA,ENSTREE,QQYYHLPLS,38 nM,6 of 6,1 of 18
KIMQSLNYEQFNVSNVA,GQETREY,QSYHRLPLS,150 nM,6 of 6,1 of 18
KLTSITGTEKVRGNNVA,EMETREN,QQYNRLPLS,770 pM,6 of 6,0 of 18
KLEQSWLYESRNKNAVA,NASQRES,QQYHRLPLS,540 pM,6 of 6,0 of 18
SITQLTAYGSRNKNSVA,QMSTRES,QQYDRLPLS,17 nM,6 of 6,0 of 18
IVSQLMIWGMHLKNSIA,EAQTRVN,QQYDRLPLI,5.1 nM,1 of 6,0 of 18
MFSSLMEYGSRYKNSVA,QASVREN,QQYHWLPLS,3.4 nM,6 of 6,1 of 18

Again, the first 5 entries without any signal:

CDR-L1,CDR-L2,CDR-L3,Kd,detected,control signals
KSSQSVLYERRNKNSVA,NASERAS,QQKHRLPLS,no signal,0 of 6,0 of 18
KSSQSDQYESRNKNSVA,RASYRES,QQYHRLPLS,no signal,0 of 6,0 of 18
MIHESMGLMSHKHSSIA,DNSTREE,QQYDRLPLS,no signal,0 of 6,0 of 18
KLEQSDLYESRNKQSVA,NASQRER,QQYHRLPLS,no signal,0 of 6,0 of 18
KSSISYLYWSRNKNSVA,EAPTRES,QQYHRLPLS,no signal,0 of 6,0 of 18